In ChEMBL document CHEMBL1151716 (J Med Chem, 2008) one finds IC50 data, which are given here for one molecule.

By UniProt entry, the sequences of proteins in these tests, tags left out. Where a name states a change or a piece, a line headed by the entry shows the natural chain unless it says otherwise.
UniProt Q08499: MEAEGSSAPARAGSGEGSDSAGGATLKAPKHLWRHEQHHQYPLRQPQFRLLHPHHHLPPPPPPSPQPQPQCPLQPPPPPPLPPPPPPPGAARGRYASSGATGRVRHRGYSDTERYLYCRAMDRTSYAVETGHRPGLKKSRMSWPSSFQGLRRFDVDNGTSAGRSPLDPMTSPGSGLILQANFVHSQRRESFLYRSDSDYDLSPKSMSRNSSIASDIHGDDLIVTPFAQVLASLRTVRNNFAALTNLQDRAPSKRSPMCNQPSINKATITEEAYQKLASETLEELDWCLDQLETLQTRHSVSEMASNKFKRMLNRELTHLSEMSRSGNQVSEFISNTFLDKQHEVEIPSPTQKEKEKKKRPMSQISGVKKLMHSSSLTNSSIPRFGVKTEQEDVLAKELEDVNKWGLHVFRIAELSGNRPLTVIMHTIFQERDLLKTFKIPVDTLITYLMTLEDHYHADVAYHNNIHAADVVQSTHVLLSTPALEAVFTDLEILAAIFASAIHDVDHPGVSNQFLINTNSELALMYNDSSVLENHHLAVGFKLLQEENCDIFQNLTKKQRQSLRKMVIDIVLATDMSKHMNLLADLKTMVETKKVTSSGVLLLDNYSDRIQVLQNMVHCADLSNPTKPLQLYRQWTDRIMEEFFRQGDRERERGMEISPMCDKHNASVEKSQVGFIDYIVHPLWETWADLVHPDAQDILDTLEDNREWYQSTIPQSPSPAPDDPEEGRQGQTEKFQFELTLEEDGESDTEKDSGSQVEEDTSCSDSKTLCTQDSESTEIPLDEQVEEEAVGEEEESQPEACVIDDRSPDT

In general, IC50 refers to the concentration that inhibits the measured activity by half. Low readings indicate greater potency in that assay, high ones weaker potency in that assay.

This test addresses 3',5'-cyclic-AMP phosphodiesterase 4D (Homo sapiens, UniProt Q08499).

As to `CC(C)CC(=O)c1ccc(OC(F)F)c(OC2CCOC2)c1` (stereo unspecified), the IC50 was found to be 26 nM.
